# Laboratory results taken from patent US20200237736A1, “METHODS FOR PREVENTING OR TREATING CANCER RESISTANCE TO EGFR INHIBITION” (INSERM (INSTITUT NATIONAL DE LA SANTE ET DE LA RECHERCHE …, priority 2017, published 2020).
# Tests used:
# [1] = test system: parental, EGFR-T790M and EGFR-T790M/C797S PC9 cells; details: single agents; sorafenib 5 μM, osimertinib 1 μM; five days; FIG. 7B
# [2] = test system: EGFR-T790M PC9 cells containing the EGFR-C797S CRISPR-barcode; details: gavage from day 27; osimertinib 5 mg/kg, sorafenib 60 mg/kg or combination; FIG. 9
# [3] = test system: PC9 cells containing EGFR-T790 CRISPR-barcodes; details: co-treatment with gefitinib; 14 or 22 days; FIG. 1B
smiles,measurement,setting,value
CNC(=O)c1cc(Oc2ccc(NC(=O)Nc3ccc(Cl)c(C(F)(F)F)c3)cc2)ccn1 [sorafenib],cell growth (colony forming assay),[1],inhibited cell growth
same,growth of the tumors / tumor size,[2],"initially inhibited, but it eventually resumed after a few weeks"
same,formation of resistant colonies,[3],abolished the formation of resistant colonies
